Source: PMC11997890, “In Vivo and In Vitro Pharmacokinetic Studies of a Dual Topoisomerase I/II Inhibitor” (ACS Pharmacology & Translational Science, 2025)

Sequences of proteins named here, by UniProt entry; tags and fusion partners are left off.
UniProt P08183, whole entry, species assumed: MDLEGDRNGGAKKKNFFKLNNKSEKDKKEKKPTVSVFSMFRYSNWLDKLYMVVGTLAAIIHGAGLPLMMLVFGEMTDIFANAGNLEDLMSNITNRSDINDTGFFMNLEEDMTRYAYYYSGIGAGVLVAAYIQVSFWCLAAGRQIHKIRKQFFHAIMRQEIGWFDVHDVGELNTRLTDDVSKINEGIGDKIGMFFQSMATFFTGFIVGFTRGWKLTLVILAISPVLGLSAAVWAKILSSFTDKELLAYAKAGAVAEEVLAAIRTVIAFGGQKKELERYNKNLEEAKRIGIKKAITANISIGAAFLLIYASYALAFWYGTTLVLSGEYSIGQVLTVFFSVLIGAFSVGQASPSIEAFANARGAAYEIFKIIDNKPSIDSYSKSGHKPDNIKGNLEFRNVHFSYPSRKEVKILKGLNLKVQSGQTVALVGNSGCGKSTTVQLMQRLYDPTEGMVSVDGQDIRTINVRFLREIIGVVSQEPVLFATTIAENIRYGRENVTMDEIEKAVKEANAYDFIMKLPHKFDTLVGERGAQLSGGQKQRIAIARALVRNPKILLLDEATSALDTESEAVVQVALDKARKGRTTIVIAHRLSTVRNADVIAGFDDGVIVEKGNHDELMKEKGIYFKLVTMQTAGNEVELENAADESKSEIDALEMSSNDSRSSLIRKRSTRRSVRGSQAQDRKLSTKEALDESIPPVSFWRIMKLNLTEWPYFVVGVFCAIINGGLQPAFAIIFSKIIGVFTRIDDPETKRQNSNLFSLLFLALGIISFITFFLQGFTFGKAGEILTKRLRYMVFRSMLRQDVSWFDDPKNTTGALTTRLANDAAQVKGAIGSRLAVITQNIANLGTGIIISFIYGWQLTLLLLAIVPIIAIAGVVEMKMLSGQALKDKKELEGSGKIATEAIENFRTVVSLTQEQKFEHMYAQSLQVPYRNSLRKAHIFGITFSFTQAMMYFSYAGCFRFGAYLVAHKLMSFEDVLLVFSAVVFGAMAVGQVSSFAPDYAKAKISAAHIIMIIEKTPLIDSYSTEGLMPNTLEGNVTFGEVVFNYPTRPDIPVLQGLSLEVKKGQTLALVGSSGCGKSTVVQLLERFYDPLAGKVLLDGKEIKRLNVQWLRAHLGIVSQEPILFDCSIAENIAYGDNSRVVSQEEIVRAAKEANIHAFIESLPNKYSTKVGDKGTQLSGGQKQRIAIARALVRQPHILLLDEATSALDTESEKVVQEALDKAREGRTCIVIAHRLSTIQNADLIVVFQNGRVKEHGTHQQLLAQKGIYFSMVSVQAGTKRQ

Biological target: T1, P-GP (ABCB1) (Homo sapiens, UniProt P08183)
T1 construct: expressed in transfected cells; host or cells: MDCK (Madin Darby canine kidney)
Assay: Transporter inhibition, calcein-AM accumulation in MDCK cells (P-GP overexpression)
Assay type: cell-based
Details: intracellular accumulation of calcein-AM
Description: The inhibitory characteristics of P8-D6 on the classic efflux transporters P-GP and BCRP (ABCG2) were evaluated (Figure ).
A potential interaction of P8-D6 with the export protein P-GP (ABCB1) was evaluated in MDCK (P-GP overexpression) and MDCKII (BCRP overexpression) cells. P-GP interaction was determined by the measurement of calcein accumulation within the cells according to Bauer et al. Calcein-acetoxymethylester (calcein-AM) is a nonfluorescent, lipophilic and therefore highly cell-permeable ester. Once inside the cell, the ester bonds are rapidly cleaved by nonspecific esterases, generating highly fluorescent calcein, which is trapped inside the cell because of its hydrophilic nature. Because calcein-AM is a substrate for P-GP, inhibition of the transporter decreases efflux, which results in a higher intracellular fluorescence signal. Cells were washed 3 times with 37 °C Krebs–Ringer buffer and subsequently incubated with increasing concentrations of the test compound for 15 min at 37 °C. […] Fluorescence was measured using a Fluoroskan Ascent plate reader (Labsystems, Helsinki, FIN) with an excitation wavelength of 485 nm and an emission wavelength of 520 nm. […] All fluorescence values were corrected by subtracting the background fluorescence. The increase in cellular fluorescence caused by the test compound was referred to the fluorescence of the control (100%). […]

Molecule `COc1ccc2c3c([nH]c2c1)[C@H](CC(C)C)N1C(=O)[C@H](CCC(=O)OC(C)(C)C)NC(=O)[C@@H]1C3` [KO-143, reference compound] has an IC50 of 4.23 µM.
